Results on one compound are retold here after patent publication US20120088753A1, “PYRROLOPYRIMIDINES AND USED AS KINASE INHIBITORS” (MEDICAL RESEARCH COUNCIL TECHNOLOGY, priority 2009, published 2012).

Protein sequences, listed by entry. Tags and fused reporters are not part of them.
UniProt Q9UHD2, whole entry: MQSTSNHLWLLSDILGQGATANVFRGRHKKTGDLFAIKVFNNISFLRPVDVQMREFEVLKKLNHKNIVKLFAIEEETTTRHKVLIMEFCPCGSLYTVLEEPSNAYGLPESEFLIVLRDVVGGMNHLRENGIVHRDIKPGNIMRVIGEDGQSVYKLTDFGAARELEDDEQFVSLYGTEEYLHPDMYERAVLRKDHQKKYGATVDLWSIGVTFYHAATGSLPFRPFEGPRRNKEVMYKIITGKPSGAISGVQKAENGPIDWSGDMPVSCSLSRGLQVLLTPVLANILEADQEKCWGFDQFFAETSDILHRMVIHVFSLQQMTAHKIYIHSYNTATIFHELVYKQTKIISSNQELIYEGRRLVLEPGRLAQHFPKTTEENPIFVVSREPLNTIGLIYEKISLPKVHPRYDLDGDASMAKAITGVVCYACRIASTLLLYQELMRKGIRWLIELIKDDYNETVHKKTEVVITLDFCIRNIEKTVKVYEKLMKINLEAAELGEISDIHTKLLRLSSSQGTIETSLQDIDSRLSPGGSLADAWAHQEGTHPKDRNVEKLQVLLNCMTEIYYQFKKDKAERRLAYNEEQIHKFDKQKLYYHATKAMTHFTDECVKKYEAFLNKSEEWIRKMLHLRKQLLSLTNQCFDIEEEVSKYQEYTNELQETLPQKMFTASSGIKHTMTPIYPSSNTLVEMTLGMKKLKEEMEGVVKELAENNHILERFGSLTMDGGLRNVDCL

Bounds are passed on as bounds.

For the test, the target named is TBK1 (Homo sapiens, UniProt Q9UHD2). The test can be described thus: TBK1 protein kinase assay ([γ-33P]ATP filter-plate, IC50 from 10 concentrations). The test is classed as biochemical. To be noted: read-out: Potency score (TBK1 IC50); 50 μM ATP, peptide substrate 300 μM, 30 min, 21° C. The source says:
All protein kinases were of human origin and encoded full length proteins, unless indicated otherwise. They were either expressed as glutathione S-transferase (GST) fusion proteins in Escherichia Coli or as hexahistidine (His6)-tagged proteins in insect Sf21 cells. GST fusion proteins were purified by affinity chromatography on glutathione-Sepharose, and His6-tagged proteins on nickel/nitriloacetate-agarose. The procedures for expressing some of the protein kinases used herein have been detailed previously.^8,9 The following sections outline the DNA vectors synthesised and the procedures used to express and purifying protein kinases that have not been reported previously.
The following kinases were expressed in Sf21 cells: Aurora B and Aurora C, extra-cellular signal-regulated kinase 8 (ERK8), microtubule affinity regulating kinase 3 (MARK3), protein kinase Bα[118-480][S473D], protein kinase Bβ (PKBβ[120-481][S474D], 3-phosphoinositide-dependent protein kinase-1 [52-556] (PDK1[52-556], IKKε, TBK1, […]
The assays were initiated with MgATP, stopped by addition of 5 μl of 0.5 M orthophosphoric acid and spotted on to P81 filterplates using a unifilter harvester (PerkinElmer, Boston, Mass. 02118, USA). The IC50 values of inhibitors were determined after carrying out assays at 10 different concentrations of each compound. […]

In the case of `O=C(NCCCn1ccc2cnc(Nc3ccc(-n4cncn4)cc3)nc21)C1CCC1`, the IC50 is less than 100 nM.
